This is a selection; strong and weak results do not stand in their true shares. Active and inactive are the calls of the source. No stated cut-off is given here; in the data, active means activation above about 18%; inactive means the rest.
These compounds were tested against Mu-type opioid receptor (Homo sapiens) + Delta-type opioid receptor (Homo sapiens) (UniProt P35372+P41143) (assay: inducers of mu-delta opioid receptor heterodimers – cell-based, luminescence, primary screen (AID 504326;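 further: 0% = vehicle-treated cells and 100% = reference agonist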)). Conditions: cells, OPRM1-OPRD1 heterodimerization, at 9.3 µM, hits give high values.

By UniProt entry, the sequences of proteins in these tests, tags left out.
UniProt P35372, whole entry, looked up: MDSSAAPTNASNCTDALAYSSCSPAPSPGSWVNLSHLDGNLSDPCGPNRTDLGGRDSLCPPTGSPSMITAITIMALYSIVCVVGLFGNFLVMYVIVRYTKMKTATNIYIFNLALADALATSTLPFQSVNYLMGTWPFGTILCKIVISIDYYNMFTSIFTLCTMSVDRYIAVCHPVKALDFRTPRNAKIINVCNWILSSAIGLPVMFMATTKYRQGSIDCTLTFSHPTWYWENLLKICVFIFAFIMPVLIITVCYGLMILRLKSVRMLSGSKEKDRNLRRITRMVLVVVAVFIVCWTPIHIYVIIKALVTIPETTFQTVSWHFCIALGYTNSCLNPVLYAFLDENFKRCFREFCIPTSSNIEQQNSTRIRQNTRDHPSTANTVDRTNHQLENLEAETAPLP
UniProt P41143, whole entry, looked up: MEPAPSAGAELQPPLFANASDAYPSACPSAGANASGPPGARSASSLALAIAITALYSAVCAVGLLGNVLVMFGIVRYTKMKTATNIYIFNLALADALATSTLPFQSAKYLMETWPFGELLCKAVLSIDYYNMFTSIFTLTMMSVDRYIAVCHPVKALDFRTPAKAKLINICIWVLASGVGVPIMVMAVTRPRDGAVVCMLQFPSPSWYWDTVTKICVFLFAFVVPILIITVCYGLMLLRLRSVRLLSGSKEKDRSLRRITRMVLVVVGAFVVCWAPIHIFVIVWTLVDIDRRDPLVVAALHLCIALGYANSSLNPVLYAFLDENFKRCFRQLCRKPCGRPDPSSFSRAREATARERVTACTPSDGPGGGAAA

| SMILES | activation |
| --- | --- |
| CCOC(=O)c1ccccc1NC(=O)CSc1nc2ccccc2n1CC(=O)N1CCCC1 | inactive: -1.15% |
| Cc1ccc(-c2csc(NC(=O)Cn3cnc4c3c(=O)n(C)c(=O)n4C)n2)cc1C | inactive: -1.37% |
| COc1ccc(N2C(=O)CC(n3cnc4ccccc43)C2=O)cc1 (stereo not given) | inactive: -2.25% |
| COc1ccccc1NC(=O)Cn1cnc2c1c(=O)n(C)c(=O)n2C | inactive: -1.91% |
| CCN1C(=O)C2(Nc3ccccc3-c3nc4ccccc4n32)c2cc(OC)ccc21 (stereo not given) | inactive: -0.16% |
| O=C(Cn1cnc2c(NC(=O)OCc3ccccc3)ncnc21)NCc1ccccn1 | inactive: -0.95% |
| Cc1nc2ccccc2n1CC(=O)NN | inactive: 0% |
| CCc1ccc(NC(=O)Cn2c(SC)nc3ccccc32)cc1 | inactive: -0.41% |
| CCC(C)N(CC(C)C)C(=S)SC(NC(C)=O)C(Cl)(Cl)Cl (stereo not given) | inactive: -0.67% |
| CC1CC(C)CN(C(=O)Cn2c(SCC(=O)N3CCc4ccccc4C3)nc3ccccc32)C1 (stereo not given) | inactive: -0.49% |
| Cc1ccc(NC(=O)CCC(=O)N/N=C/C=C/c2ccccc2)cc1 | inactive: 2.24% |
| Cc1nc2ccccc2n1CC(=O)N/N=C\c1ccccn1 | inactive: 2.04% |
| CC(C)NC(=O)Cn1c(SCC(=O)N2CCCc3ccccc32)nc2ccccc21 | inactive: -2.06% |
| Cc1ccc2c(c1)C1CN(C)CCC1N2C(=O)COc1ccc(S(=O)(=O)N2CCOCC2)cc1 (stereo not given) | inactive: -1.3% |
| CCOC(=O)c1ccc(NC(=O)C(C)(CCl)SC)cc1 (stereo not given) | inactive: -2.08% |
| O=C(Cn1c(-c2cscn2)nc2ccccc21)Nc1cc(F)ccc1F | inactive: -1.76% |
| Cc1ccc2c(c1)C1C[N+](C)(CC(=O)c3ccc(Cl)cc3Cl)CCC1N2C(=O)c1ccc(F)cc1 (stereo not given) | inactive: -0.81% |
| CCN(CC)C(=O)Cn1cnc2c1c(=O)n(C)c(=O)n2C | inactive: -1.81% |
| CC(C)N(C(=O)Cn1c(Cl)nc2ccccc21)C(C)C | inactive: -1.66% |
| COc1ccc(CCNC(=O)[C@H](CC(C)C)NC(=O)N2CCn3c2nc2ccccc23)cc1OC | inactive: -0.54% |
| O=C(c1ccccc1Cl)N1CCn2c1nc1ccccc12 | inactive: -2.39% |
| CCC(NC(=O)Cn1cnc2c(=O)n(C)c(=O)n(C)c21)c1ccccc1 (stereo not given) | inactive: -1.17% |
| O=C1Cn2c(nc3ccccc32)-c2ccccc2N1 | inactive: -0.33% |
| O=C(OC1CN2CCC1CC2)c1cccc([N+](=O)[O-])c1 (stereo not given) | inactive: -1.84% |
| CCC(C)[C@H](NC(=O)N1CCn2c1nc1ccccc12)C(=O)NCC1CCCO1 (stereo not given in full) | inactive: -1.66% |

From PubChem BioAssay AID504326 (The Scripps Research Institute Molecular Screening Center, 2011)
